For series [1] the following is noted: in water; cited from earlier work.
Series [2] in a line: Solubility of CGP in water. In kind it is physicochemical. Particulars: compared to other calcium salts. The protocol: CGP is odorless, almost tasteless, and forms a fine, slightly hygroscopic powder. CGP may also be formed into tablets, and may be dissolved into water. The solubility of CGP is about 1 gram in about 50 mL of water. […] Thus, CGP is known in the art to be useful as a dietary supplement for calcium and phosphorus and/or phosphate, where CGP contains 19 wt % calcium.
The CGP may be used alone or in combination with other calcium salts, such as calcium carbonate, calcium acetate, calcium oxide, calcium hydroxide, calcium phosphate, calcium lactate and calcium citrate. As CGP is relatively expensive, combining CGP with one or more calcium salts such as listed above affords a less expensive composition that may be used in the present invention. However, the combination of CGP and one or more additional calcium salts may have solubility properties that are very different from that of CGP alone.

Regarding “1,2,3-propanetriol, mono(dihydrogen phosphate) calcium salt (1:1) [CGP]”, the solubility result in series [1] was “about 1 gram in about 50 mL of water”. Further, in series [2], the “dissolution behaviour in aqueous solution” value is “readily dissolves, and stays dissolved”.

These data come from patent publication US6447754B1, “Oral rinse methods and compositions” (AkPharma Inc., priority 2000, dated 2002).
